Test results: patent publication US5922689A, “Cisplatin analogs for cancer treatment” (Unitech Pharmaceuticals, Inc., priority 1997, dated 1999)

Assay: Solubility in water
Assay type: physicochemical
Conditions: for solubility in water (in words): room temperature

| Substance | solubility in water (ambient temperature) [µg/mL] | solubility in water (in words) |
| --- | --- | --- |
| cis-diamminechloroguanosineplatinum chloride [cis-[Pt(NH3)2 Cl(Guanosine)]Cl] | 2600 | slightly soluble in water |
| cis-diamminediguanosineplatinum chloride [cis-[Pt(NH3)2 (Guanosine)2]Cl2] | – | slightly soluble in water |
